Assay results as given in PubChem BioAssay AID797 (University of Pittsburgh Molecular Library Screening Center, 2007).
This is a selection; strong and weak results do not stand in their true shares. Active and inactive are the calls of the source. No stated cut-off is given here; in the data, active means inhibition above about 50%; inactive means the rest.

Amino acid sequences for entries named in this document (tags omitted).
UniProt Q15139, whole entry: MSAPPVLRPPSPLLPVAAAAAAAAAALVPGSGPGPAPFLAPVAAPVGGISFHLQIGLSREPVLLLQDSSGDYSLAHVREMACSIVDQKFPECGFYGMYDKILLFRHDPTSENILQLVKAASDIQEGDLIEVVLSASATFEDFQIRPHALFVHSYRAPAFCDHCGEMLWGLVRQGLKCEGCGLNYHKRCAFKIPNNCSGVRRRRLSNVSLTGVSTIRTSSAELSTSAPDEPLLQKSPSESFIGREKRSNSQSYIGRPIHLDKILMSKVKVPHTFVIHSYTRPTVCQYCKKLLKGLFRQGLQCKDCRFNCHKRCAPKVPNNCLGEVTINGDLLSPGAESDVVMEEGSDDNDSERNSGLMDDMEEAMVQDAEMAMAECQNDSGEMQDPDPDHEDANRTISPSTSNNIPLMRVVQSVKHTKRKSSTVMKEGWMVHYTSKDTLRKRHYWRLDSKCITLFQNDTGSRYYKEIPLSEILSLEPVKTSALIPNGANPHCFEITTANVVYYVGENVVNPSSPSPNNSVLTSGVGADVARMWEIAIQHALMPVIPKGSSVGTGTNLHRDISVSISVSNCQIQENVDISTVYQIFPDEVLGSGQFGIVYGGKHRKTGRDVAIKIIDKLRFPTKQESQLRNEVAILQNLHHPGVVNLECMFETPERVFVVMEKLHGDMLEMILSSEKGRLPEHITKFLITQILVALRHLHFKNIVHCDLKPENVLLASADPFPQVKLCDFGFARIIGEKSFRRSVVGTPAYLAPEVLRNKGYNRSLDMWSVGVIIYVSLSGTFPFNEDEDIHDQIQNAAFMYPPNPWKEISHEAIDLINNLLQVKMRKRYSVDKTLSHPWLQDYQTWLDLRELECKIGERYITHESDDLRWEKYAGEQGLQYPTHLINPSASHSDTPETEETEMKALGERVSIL

Target: Serine/threonine-protein kinase D1 (Homo sapiens) (UniProt Q15139)
Experiment: inhibitors of human PKD1 kinase, biochemical, fluorescence polarization (AID 797)
Conditions: PKD1 kinase fluorescence polarization assay; stronger effect = higher value; concentration not given here

SMILES | inhibition
COc1ccc(OP(C)(=O)Nc2ccc(SC(F)(F)F)cc2)cc1 (stereo not drawn) | inactive: -5.45%
Cc1nc2ccc3ccccc3c2o1.O=[N+]([O-])c1cc([N+](=O)[O-])c(O)c([N+](=O)[O-])c1 | inactive: -17.6%
CCN(N=Nc1nonc1N)c1nonc1N | inactive: -0.42%
CP(=O)(Nc1ccc(Cl)cc1Cl)Oc1ccccc1 (stereo not drawn) | inactive: -4.61%
CP(=O)(OCCOc1ccccc1)OCCOc1ccccc1 | inactive: 0.13%
Cc1cc(C)cc(OP(C)(=O)Nc2cccc(C(F)(F)F)c2)c1 (stereo not drawn) | inactive: -7.14%
COc1ccccc1OP(C)(=O)Nc1ccc(C)c(C)c1 (stereo not drawn) | inactive: -11.7%
Cc1cc(SC(NC(=O)c2ccc(F)cc2)C(Cl)(Cl)Cl)ncn1 (stereo not drawn) | inactive: -1.36%
CCOP(=O)(Nc1ccccc1)OCC | inactive: -7.17%
COc1ccc(OP(C)(=O)Nc2ccccc2Br)cc1 (stereo not drawn) | inactive: 14.5%
Cc1c(NP(C)(=O)Oc2ccc(C(C)C)cc2)c(=O)n(-c2ccccc2)n1C (stereo not drawn) | inactive: -10.6%
CC(C)CC(=O)NC(Sc1ccc(Cl)cc1)C(Cl)(Cl)Cl (stereo not drawn) | inactive: -5.65%
O=[N+]([O-])c1cc([N+](=O)[O-])c(Nc2ccccn2)c([N+](=O)[O-])c1 | inactive: 0.3%
O=C(NC(Sc1ccncn1)C(Cl)(Cl)Cl)c1ccccc1 (stereo not drawn) | inactive: -1.76%
Cc1c2non([O-])c-2c(C)[n+](=O)[n+]1[O-] | inactive: -7.52%
Oc1ccccc1CNc1ccccn1 | inactive: 4.58%
COc1ccccc1OP(C)(=O)Nc1ccc(C)cc1C (stereo not drawn) | inactive: 6.46%
CP(=O)(Nc1ccccn1)Oc1ccccc1 (stereo not drawn) | inactive: -11.9%
CCc1ccc(OP(C)(=O)O)cc1 | inactive: -0.27%
NC(=O)c1cc([N+](=O)[O-])cc([N+](=O)[O-])c1N | inactive: -3.91%
Cc1ccc(N/C(=N/P(=O)(N2CCOCC2)N2CCOCC2)N2CCOCC2)cc1 | inactive: 2.3%
COc1ccccc1OP(=O)(Nc1ccc(C)cn1)Oc1ccccc1OC | inactive: -3.23%
COc1ccc(OP(C)(=O)Nc2ccccn2)cc1 (stereo not drawn) | inactive: -5.53%
CN1CCCC(OC(=O)C(c2ccccc2)c2ccccc2)C1 (stereo not drawn) | inactive: -2.79%

SMILES | inhibition
Clc1ccc(Cl)c(NC2=NCC(CBr)S2)c1 (stereo not drawn) | inactive: -8.85%
CN(C)CCOC(=O)C(O)(c1ccccc1)C1CCCC1 (stereo not drawn) | inactive: -0.39%
COc1ccccc1OP(C)(=O)Nc1ccccc1Br (stereo not drawn) | inactive: -4.11%
CC(C)(C)c1ccc(OP(C)(=O)O)cc1 | inactive: -3.3%
CP(=O)(Nc1ccc(Cl)cc1)Oc1ccc(F)cc1 (stereo not drawn) | inactive: -0.00632%
CCN(/C(=N/P(=O)(N1CCOCC1)N1CCOCC1)N1CCOCC1)c1ccc(OC)cc1 | inactive: -1.18%
CN(C)C(=O)OCCc1n(C)cc[n+]1C | inactive: -2.94%
CN(C)C(=O)c1c([N+](=O)[O-])cc([N+](=O)[O-])cc1[N+](=O)[O-] | inactive: 1.22%
CC(C)=N/N=C(\N)N[N+](=O)[O-] | inactive: 5.93%
CC1CCN(C(=O)Oc2c(Cl)cc(Cl)c3cccnc23)CC1 | inactive: -4.21%
COc1ccc(OP(C)(=O)Nc2ccc(Br)cc2)cc1 (stereo not drawn) | inactive: -2.24%
COc1ccc(C2=NCC(CBr)S2)cc1 (stereo not drawn) | inactive: 1.84%
CCN(CC)CC(O)COC(=O)C(O)(c1ccccc1)C1CCCCC1 (stereo not drawn) | inactive: -0.74%
O=[N+]([O-])c1cccc2n[nH]nc12 | inactive: 4.89%
CC(=O)N1C2C3N(C(C)=O)C1C1N(C(C)=O)C(C(N1C(C)=O)N3C(C)=O)N2C(C)=O | inactive: 1.02%
COc1ccccc1OP(C)(=O)Nc1c(C)n(C)n(-c2ccccc2)c1=O (stereo not drawn) | inactive: 2.01%
CCc1ccc(OP(C)(=O)Nc2cccnc2)cc1 (stereo not drawn) | inactive: 3.32%
CCc1nc2c(n1)c1c(non1O)c1c2no[n+]1[O-] | inactive: -1.77%
O=[N+]([O-])c1cc([N+](=O)[O-])c(CCNc2ccccc2)c([N+](=O)[O-])c1 | inactive: 0.33%
CP(=O)(Oc1ccccc1)N1CCOC1=O (stereo not drawn) | inactive: -1.06%
Cc1ccc(NP(=O)(Oc2ccccc2)Oc2ccccc2)nc1 | inactive: -1.33%
O=[N+]([O-])c1ncn(CCn2ncnc2[N+](=O)[O-])n1 | inactive: 0.25%
CCOC(=O)c1ccc(NP(C)(=O)Oc2ccc(Cl)cc2)cc1 (stereo not drawn) | inactive: 0.19%
CP(=O)(OC12CC3CC(CC(C3)C1)C2)OC12CC3CC(CC(C3)C1)C2 | inactive: -0.11%
